Assay results: publication PMC6151491, “In Vitro Evaluation of Third Generation PAMAM Dendrimer Conjugates” (Molecules : A Journal of Synthetic Chemistry and Natural …, 2017)

Columns and labels:
[1] = Apparent partition coefficient between 1-octanol and buffer; format: physicochemical
[2] = tested on: Caco-2 cell monolayers; test: Transport across Caco-2 monolayers; settings: each equivalent to 100 µM naproxen, A→B and B→A, 180 min
[3] = 1-octanol/0.06 M hydrochloric acid buffer pH 1.2, 37 °C
[4] = 1-octanol/phosphate buffer pH 7.4, 37 °C

Substance | log Kapp(o/w) [1, 3] | log Kapp(o/w) [1, 4] | transport of naproxen across Caco-2 monolayers (in words) [2]
G0-diethylene glycol-naproxen [G0-deg-NAP] | −1.17 ± 0.1 | −1.07 ± 0.09 | No significant difference (p > 0.05)
lauroyl-G0-diethylene glycol-naproxen [L-G0-deg-NAP] | −0.18 ± 0.05 | −0.19 ± 0.07 | further enhancement (p < 0.05) in the transport of naproxen
